The results in this text go back to ChEMBL document CHEMBL3813640, “Design and synthesis of potent and selective pyridazin-4(1H)-one-based PDE10A inhibitors interacting with Tyr683 in the PDE10A selectivity pocket” (Bioorg Med Chem, 2016).

By UniProt entry, the sequences of proteins in these tests, tags left out. Where a name states a change or a piece, a line headed by the entry shows the natural chain unless it says otherwise.
UniProt Q9HCR9: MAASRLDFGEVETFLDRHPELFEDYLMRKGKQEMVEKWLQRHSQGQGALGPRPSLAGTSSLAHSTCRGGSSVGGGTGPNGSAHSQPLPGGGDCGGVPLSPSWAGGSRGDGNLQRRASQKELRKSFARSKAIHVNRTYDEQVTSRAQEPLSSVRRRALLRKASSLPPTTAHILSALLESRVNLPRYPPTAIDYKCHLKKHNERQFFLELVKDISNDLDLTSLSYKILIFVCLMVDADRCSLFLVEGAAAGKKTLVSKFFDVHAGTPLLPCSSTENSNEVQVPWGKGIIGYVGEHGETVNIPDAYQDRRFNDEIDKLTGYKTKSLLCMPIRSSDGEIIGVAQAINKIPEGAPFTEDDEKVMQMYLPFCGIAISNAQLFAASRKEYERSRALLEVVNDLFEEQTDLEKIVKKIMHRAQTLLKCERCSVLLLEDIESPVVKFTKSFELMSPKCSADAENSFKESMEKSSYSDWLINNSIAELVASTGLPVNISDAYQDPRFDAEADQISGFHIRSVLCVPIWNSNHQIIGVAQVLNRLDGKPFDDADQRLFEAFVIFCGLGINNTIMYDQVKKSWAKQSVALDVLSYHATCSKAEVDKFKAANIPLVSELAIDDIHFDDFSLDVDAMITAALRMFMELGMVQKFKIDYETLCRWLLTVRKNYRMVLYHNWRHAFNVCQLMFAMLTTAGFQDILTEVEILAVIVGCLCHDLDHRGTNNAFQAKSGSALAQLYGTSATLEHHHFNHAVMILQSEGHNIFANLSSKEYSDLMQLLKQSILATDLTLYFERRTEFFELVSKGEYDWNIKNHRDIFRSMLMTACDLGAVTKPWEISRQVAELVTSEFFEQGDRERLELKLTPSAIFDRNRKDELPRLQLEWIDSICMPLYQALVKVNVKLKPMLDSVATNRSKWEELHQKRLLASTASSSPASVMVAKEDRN

SMILES strings stand for the structures.

This experiment deals with Dual 3',5'-cyclic-AMP and -GMP phosphodiesterase 11A (Homo sapiens, UniProt Q9HCR9). Put plainly: Inhibition of human PDE11A4.

By IC50 is commonly meant the point on the concentration scale where inhibition reaches its midpoint. A high value points to weaker potency in that assay.

`O=c1c(OCCN2CCn3c2nc2ccccc23)cn(CC2CC2)nc1-c1ccnn1-c1ccccc1` had an IC50 above 10 µM.
